Counter-ions that a name gives are not always drawn.
What was measured:
HCT116, DLD1 and SW480 = experiment: Synergy score screen: chemotherapeutic agents in low serine, glycine, cysteine medium, cell counts
[1] = test system: lymphoma (based on Eμ-Myc expression); details: 100 mg/kg/day, mice receiving the serine and glycine deficient diet

SMILES | SYNERGY SCORE (HCT116, DLD1 and SW480) | toxicity (symptoms resembling dyschezia) [1]
NCCCNCCSP(=O)(O)O [Amifostine] | 3.01 | –
CCCCCOC(=O)Nc1nc(=O)n([C@@H]2O[C@H](C)[C@@H](O)[C@H]2O)cc1F [Capecitabine] | 1.94 | –
C1CN1c1nc(N2CC2)nc(N2CC2)n1 [Triethylenemelamine] | 1.03 | –
CCC1=C[C@@H]2CN(C1)Cc1c([nH]c3ccccc13)[C@@](C(=O)OC)(c1cc3c(cc1OC)N(C)[C@H]1[C@@](O)(C(=O)OC)[C@H](OC(C)=O)[C@]4(CC)C=CCN5CC[C@]31[C@@H]54)C2 [Vinorelbine tartrate] | 3.96 | –
[H]/N=C(/N)N/C(=N/[H])NCCc1ccccc1 [phenformin] | – | significant toxicity

Source: US12478601B2, “Dietary product devoid of at least two non essential amino acids” (CANCER RESEARCH TECHNOLOGY LIMITED, priority 2016, dated 2025)
